Measured values: ChEMBL document CHEMBL4342491, “Development of a Versatile and Sensitive Direct Ligand Binding Assay for Human NR5A Nuclear Receptors” (ACS Med Chem Lett, 2020)

Sequences of proteins named here, by UniProt entry; tags and fusion partners are left off.
UniProt Q13285, whole entry: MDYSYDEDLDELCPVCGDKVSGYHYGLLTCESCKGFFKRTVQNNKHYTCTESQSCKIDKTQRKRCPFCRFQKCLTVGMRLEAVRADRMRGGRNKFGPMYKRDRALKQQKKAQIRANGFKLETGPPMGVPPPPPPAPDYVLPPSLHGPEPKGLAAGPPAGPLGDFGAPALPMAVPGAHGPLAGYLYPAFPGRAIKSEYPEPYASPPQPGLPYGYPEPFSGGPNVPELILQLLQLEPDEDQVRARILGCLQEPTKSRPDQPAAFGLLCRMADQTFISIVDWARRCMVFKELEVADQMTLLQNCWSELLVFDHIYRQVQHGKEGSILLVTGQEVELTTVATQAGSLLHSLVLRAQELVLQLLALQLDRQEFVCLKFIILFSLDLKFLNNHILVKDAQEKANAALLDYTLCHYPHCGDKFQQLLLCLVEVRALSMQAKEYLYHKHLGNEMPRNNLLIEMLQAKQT

Tests used:
Steroidogenic factor 1 [1] = target: T1, Steroidogenic factor 1 (Homo sapiens, UniProt Q13285); assay: Binding affinity to human SF1 LBD (218 to 461 residues) expressed in Escherichia coli BL21 by electrophoretic mobility shift assay
Steroidogenic factor 1 [2] = target: T1, Steroidogenic factor 1

Kd (Steroidogenic factor 1 [1]): 1200 nM
Ki (Steroidogenic factor 1 [2]): 3.3 µM
Structure (SMILES): C=C(c1ccccc1)[C@@]12CC[C@@H](O)[C@@H]1CC(CCCCCC)=C2c1ccccc1
